The source of these data is ChEMBL document CHEMBL1148806, “Nitric oxide donor beta2-agonists: furoxan derivatives containing the fenoterol moiety and related furazans” (J Med Chem, 2007).

By IC50 is commonly meant the concentration that gives 50% inhibition. Lower therefore signals inhibition by little substance.

The test relates to Liver microsomes. In words: Antioxidant activity in rat hepatic microsomal membrane.

`CC(Cc1ccc(O)cc1)NCC(O)c1cc(O)cc(O)c1` (racemic) [FENOTEROL HBR] showed an IC50 of 215 µM.

Consider `CC(Cc1ccc(O)cc1)NCC(O)c1cc(O)cc(O)c1` (configuration not stated) [FENOTEROL], for which the 50% inhibitory concentration (IC50) came to 229 µM.
